The test concerns the target Adenosine receptor A1 (Homo sapiens, UniProt P30542). Description: Displacement of [3H]CCPA from human recombinant adenosine A1 receptor expressed in CHO cells. The class given is cell-based.

Amino acid sequences for entries named in this document (tags omitted).
UniProt P30542, whole entry: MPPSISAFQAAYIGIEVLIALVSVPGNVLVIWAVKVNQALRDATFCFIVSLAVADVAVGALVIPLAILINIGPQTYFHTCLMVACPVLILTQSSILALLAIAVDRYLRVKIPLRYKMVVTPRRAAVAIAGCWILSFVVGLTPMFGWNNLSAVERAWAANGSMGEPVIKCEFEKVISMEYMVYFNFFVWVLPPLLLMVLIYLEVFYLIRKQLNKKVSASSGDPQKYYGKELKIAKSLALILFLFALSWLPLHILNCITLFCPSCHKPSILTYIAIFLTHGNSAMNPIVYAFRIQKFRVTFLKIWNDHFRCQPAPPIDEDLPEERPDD

The structures appear in SMILES notation.

For orientation: Ki means the dissociation constant of the complex between target and ligand, obtained from inhibition or displacement. As to `CNC(=O)[C@H]1O[C@@H](n2cnc3c(NOC)nc(C#Cc4ccc(C)cc4)nc32)[C@H](O)[C@@H]1O`, the Ki worked out at 12 µM.

(Values after ChEMBL document CHEMBL1142938 (J Med Chem, 2007).)
